Measured values taken from patent EP0308189B1, “Skin cleansing toilet bar with low moisture content” (THE PROCTER & GAMBLE COMPANY, priority 1987, dated 1989).

Tested on: skin epidermis

## sodium coco glyceryl ether sulfonate [AGS]
  Relative Skin Barrier Penetration Value: 9
  Total mg Water Penetrating the Skin in 24 Hours: 22.8 ± 7.9 mg
  mildness to the skin: mild and relatively nonirritating to the skin
